In article PMC12271536 one finds solubility data, which are given here for one compound.

This series in a line: Inhibitor solubility under ITC conditions. The following applies: same conditions as ITC (buffer B); precluded ITC analysis.

Regarding `N#C[C@H](C[C@@H]1CCCNC1=O)NC(=O)[C@H](CC1CC1)NC(=O)c1cc2cccc(Cl)c2[nH]1`, the solubility result is reported as “poor”.
